From patent US12527838B2, “Combination therapies comprising an agent that blocks the interaction between CD47 and SIRPα for treating gastric or gastroesphageal junction cancel” (ALX Oncology Inc., priority 2019, dated 2026)

Experiments:
[1] = molecular target: T1, hCD47 (Homo sapiens, UniProt Q08722); assay: Affinity for hCD47; format: binding; details: Table D
[2] = molecular target: T1, hCD47; assay: In vitro receptor occupancy assay; format: binding; details: at a concentration of ˜1 nM; FIG. 8A
Procedure: In vitro receptor occupancy assays were performed to assess the binding of Drug A, F59/magrolimab, TTI-621, and TTI-622 to hCD47. […] F59/magrolimab is a therapeutic anti-CD47 antibody comprising a human IgG4 Fc domain with WT effector function. TTI-621 is a therapeutic fusion polypeptide comprising the CD47 binding domain of human SIRPα linked to a human IgG1 Fc domain with WT effector function. TTI-622 is a therapeutic fusion polypeptide comprising the CD47 binding domain of human SIRPα linked to a to a human IgG4 Fc domain with WT effector function.

[3] = molecular target: T2, interaction between hSIRPα and hCD47 (Homo sapiens, UniProt Q08722); assay: PathHunter SIRPα Signaling Bioassay; format: cell-based
T2 construct: purchased DiscoverX
Excerpt: A validated SIRPα signaling assay (PathHunter SIRPα Signaling Bioassay from DiscoverX) was used to assess the degree to which Drug A, F59/magrolimab, TTI-621, and TTI-622 inhibit the interaction between hSIRPα and hCD47.

[4] = tested on: MC38 m/h HER2 tumors; assay: MC38 m/h HER2 colon tumor model; format: in vivo, C57BL/6 mice; details: Drug A 30 mg/kg 2q10d, anti-PDL1 antibody 1 mg/kg 3q5d, trastuzumab 30 mg/kg 3q5d, IP
Procedure: MC38 m/h HER2 cells were generated by infecting MC38 murine colon adenocarcinoma cells with a lentivirus vector encoding a chimera of mouse and human HER2 transmembrane and extracellular domains. MC38 m/h HER2 cells were maintained in DMEM (Thermo Fisher Scientific 11965092) supplemented with 10% FBS, 1% Penicillin-Streptomycin, 1% GlutaMAX and 1 mM Sodium Pyruvate (Thermo Fisher Scientific 11360070) at 37° C., 5% CO2 incubator. All tissue culture was performed under aseptic conditions.
Prior to implantation, a master cell bank of each cell line was generated to assure that cells used in subsequent experiments were of the same passage number. Cells were harvested and washed two times in 50 mL cold PBS (Life Technologies 10010072). After the final wash, cells were resuspended in PBS or RPMI at 5×10^6 cells/mL for MC38 m/h HER2 cell line. 100 μL of cell suspension were subcutaneously injected into the right flank of C57BL/6 mice for MC38 m/h HER2. When tumor size reached an average of 65-69 mm^3 for MC38 m/h HER2 tumors, the animals were randomized into 8 groups of 10 mice. […]
Tumor volume (mm^3) using Mitutoyo Digital Caliper (Mitutoyo America, Aurora, Illinois) and body weights were recorded two or three times per week. […] Tumor volume is calculated ([length×{width×width}]×0.5=volume in mm^3). Statistical analysis and p values were calculated using GraphPad Prism Software.

Kd [1] [nM] | receptor occupancy [2] | EC50 ([3]; Table E) [µg/mL] | inhibition of SIRPα signaling ([3]; at a concentration of 1 nM, FIG. 8B) | Substance | tumor growth [4]
7 | about 90% | 0.0744 | about 80% | F59/magrolimab: therapeutic anti-CD47 antibody comprising a human IgG4 Fc domain with WT effector function | 
 |  |  |  | trastuzumab: anti-HER2 antibody (CAS Registry No. 180288-69-1) | had no effect on tumor growth
